Reference: article PMC3845904 (Chemical research in toxicology, 2009)

What was measured:
human P450 1B1 [1] = target: T1, human P450 1B1 (Homo sapiens, UniProt Q16678); test: Spectral binding titration
T1 sequence (Q16678 1-543): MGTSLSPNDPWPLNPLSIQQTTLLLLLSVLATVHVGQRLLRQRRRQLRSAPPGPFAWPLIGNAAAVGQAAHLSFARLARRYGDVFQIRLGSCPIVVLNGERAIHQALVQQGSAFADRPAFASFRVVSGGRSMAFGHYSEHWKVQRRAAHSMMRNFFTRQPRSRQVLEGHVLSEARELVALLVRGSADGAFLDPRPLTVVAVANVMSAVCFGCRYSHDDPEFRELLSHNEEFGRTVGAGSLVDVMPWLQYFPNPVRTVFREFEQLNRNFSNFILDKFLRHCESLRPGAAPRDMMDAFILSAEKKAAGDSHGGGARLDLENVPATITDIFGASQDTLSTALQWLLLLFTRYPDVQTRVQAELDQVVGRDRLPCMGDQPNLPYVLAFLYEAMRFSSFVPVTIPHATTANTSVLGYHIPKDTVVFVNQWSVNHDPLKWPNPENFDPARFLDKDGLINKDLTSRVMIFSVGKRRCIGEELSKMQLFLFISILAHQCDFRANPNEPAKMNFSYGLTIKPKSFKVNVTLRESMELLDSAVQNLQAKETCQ

human P450 1B1 [2] = target: T1, human P450 1B1; test: biochemical

| Reverse Type I spectra ΔAmax (human P450 1B1 [1]; purified P450 1B1 1.0 μM, means ± SEs, ND = not detected at 100 μM) | SMILES | Kd (human P450 1B1 [1]) [nM] | IC50 (human P450 1B1 [2]) [nM] |
| --- | --- | --- | --- |
| – | O=c1cc(-c2ccccc2)oc2c1ccc1ccccc12 [ANF, α-naphthoflavone, reference compound] | 12000 ± 1600 | 3.3 ± 0.3 |
| 0.047 ± 0.003 | COc1cc(C=Cc2ccc(OC)cc2OC)cc(OC)c1 [TMS, 2,4,3′,5′-tetramethoxystilbene, reference compound] | 4300 ± 700 | 23 ± 3 |
